Values of other authors as cited in patent US7144890B2, “Spiro-pentacyclic compounds” (Hoffman-La Roche Inc., priority 2004, dated 2006).

The chains behind the UniProt entries cited, without tags or fusion partners.
UniProt P47746, whole entry: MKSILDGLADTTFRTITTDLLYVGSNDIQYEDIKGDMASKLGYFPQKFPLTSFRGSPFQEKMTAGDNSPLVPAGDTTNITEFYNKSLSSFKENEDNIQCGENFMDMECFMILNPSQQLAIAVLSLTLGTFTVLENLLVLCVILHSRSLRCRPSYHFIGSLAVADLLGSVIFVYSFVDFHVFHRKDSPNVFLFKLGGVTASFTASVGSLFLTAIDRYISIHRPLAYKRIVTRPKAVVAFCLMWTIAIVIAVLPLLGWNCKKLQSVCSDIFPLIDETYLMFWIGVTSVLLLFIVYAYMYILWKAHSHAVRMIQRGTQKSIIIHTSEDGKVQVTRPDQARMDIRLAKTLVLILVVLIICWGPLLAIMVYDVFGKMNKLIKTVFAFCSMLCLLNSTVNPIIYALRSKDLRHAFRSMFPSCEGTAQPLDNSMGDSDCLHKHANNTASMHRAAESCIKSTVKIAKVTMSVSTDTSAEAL

Target: CB1 receptor (Mus musculus, UniProt P47746)
Conditions: wild-type versus CB1 receptor knockout mice, after temporary food restriction; cited from earlier work

Cc1c(C(=O)NN2CCCCC2)nn(-c2ccc(Cl)cc2Cl)c1-c1ccc(Cl)cc1 [SR 141716]
food intake: reduces food intake in wild-type but not knockout mice
